ChEMBL document CHEMBL1240443, “A study of cytotoxicity of novel chlorokojic acid derivatives with their antimicrobial and antiviral activities” (Eur J Med Chem, 2010)

System: Pseudomonas aeruginosa
Conditions: ATCC 10145

GENTAMICIN
MIC: 0.5 µg/mL
